In ChEMBL document CHEMBL5512662, “Illuminating Dark Chemical Matter Using the Cell Painting Assay” (J Med Chem, 2024):
Active and inactive are the calls of the source. No cut-off for these calls is given here.

By UniProt entry, the sequences of proteins in these tests, tags left out. Where a name states a change or a piece, a line headed by the entry shows the natural chain unless it says otherwise.
UniProt P56726, whole entry: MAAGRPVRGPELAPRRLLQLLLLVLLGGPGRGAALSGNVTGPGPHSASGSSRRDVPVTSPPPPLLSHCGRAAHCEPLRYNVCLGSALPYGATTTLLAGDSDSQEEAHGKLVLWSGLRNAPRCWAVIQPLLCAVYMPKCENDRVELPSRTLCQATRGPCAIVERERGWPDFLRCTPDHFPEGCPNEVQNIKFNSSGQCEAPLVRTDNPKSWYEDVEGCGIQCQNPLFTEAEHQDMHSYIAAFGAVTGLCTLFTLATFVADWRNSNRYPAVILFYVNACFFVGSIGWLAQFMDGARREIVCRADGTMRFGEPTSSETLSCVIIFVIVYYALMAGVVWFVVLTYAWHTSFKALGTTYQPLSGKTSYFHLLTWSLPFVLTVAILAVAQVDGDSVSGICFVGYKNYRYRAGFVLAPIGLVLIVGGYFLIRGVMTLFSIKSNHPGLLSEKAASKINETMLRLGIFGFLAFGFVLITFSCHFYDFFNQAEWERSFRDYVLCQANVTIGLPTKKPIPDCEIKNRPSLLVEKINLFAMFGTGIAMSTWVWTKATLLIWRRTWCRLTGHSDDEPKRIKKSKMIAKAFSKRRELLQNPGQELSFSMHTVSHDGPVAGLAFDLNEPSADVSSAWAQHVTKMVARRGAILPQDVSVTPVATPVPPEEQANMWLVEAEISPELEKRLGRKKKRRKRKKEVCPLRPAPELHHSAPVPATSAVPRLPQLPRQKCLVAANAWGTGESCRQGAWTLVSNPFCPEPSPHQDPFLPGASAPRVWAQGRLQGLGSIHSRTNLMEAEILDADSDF
UniProt P68371: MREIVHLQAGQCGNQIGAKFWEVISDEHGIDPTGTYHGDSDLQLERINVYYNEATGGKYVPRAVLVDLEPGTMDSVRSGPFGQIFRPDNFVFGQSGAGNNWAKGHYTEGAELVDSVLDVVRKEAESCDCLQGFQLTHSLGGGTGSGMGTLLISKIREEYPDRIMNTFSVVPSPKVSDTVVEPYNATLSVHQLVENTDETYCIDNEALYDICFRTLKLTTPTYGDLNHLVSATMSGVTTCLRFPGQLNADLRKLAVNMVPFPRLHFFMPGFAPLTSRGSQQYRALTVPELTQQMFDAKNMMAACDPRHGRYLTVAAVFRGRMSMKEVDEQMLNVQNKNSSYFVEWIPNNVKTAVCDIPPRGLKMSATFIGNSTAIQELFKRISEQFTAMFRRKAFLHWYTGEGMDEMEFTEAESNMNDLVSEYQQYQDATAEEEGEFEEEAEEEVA
UniProt Q9H4B7: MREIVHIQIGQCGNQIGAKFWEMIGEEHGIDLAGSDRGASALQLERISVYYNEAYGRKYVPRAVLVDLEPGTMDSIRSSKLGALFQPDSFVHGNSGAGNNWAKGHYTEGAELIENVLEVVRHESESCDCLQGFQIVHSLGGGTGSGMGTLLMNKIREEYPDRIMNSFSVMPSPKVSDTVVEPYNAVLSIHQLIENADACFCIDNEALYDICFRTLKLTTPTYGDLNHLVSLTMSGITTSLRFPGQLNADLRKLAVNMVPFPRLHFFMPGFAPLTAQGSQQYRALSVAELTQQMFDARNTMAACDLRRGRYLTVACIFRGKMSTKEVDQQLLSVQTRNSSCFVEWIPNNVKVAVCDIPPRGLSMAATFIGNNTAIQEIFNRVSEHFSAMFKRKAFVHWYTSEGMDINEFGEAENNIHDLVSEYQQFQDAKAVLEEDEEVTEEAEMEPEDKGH
UniProt Q13509: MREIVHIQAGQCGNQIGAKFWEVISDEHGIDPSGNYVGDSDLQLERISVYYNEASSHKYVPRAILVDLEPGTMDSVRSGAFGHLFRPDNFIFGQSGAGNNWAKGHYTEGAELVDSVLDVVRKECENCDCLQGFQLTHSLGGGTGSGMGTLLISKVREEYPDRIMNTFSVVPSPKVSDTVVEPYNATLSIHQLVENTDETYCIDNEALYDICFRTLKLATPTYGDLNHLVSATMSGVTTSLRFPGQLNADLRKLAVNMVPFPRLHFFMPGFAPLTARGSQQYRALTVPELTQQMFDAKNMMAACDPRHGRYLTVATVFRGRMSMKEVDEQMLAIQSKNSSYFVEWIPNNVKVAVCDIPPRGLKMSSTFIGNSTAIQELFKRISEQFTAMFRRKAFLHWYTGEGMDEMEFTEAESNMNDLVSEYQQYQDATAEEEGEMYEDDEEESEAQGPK
UniProt Q71U36: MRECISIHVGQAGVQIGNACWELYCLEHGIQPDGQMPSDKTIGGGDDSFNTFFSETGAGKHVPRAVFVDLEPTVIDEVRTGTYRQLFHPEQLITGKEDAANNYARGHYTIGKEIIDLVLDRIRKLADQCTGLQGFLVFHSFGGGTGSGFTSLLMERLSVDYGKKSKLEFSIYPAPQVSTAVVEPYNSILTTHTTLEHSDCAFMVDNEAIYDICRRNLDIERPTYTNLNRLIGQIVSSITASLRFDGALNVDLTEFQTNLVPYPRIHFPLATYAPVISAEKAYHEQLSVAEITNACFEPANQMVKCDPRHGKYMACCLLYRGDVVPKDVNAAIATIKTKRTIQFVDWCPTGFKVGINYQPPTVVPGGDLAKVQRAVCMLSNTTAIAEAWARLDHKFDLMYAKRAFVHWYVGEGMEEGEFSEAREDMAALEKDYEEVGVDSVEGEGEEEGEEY
UniProt P04350: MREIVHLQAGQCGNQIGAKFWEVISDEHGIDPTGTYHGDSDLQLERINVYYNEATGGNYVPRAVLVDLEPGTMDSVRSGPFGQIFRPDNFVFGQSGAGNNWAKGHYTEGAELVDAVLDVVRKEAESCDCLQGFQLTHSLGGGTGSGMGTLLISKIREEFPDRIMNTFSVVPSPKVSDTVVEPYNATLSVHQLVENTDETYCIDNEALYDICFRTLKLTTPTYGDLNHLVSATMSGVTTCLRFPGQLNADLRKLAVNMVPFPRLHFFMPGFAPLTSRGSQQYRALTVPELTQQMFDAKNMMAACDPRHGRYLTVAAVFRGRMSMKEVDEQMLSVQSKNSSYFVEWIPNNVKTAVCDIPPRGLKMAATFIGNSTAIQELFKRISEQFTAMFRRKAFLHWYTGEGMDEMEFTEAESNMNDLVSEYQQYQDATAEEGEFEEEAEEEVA
UniProt Q3ZCM7: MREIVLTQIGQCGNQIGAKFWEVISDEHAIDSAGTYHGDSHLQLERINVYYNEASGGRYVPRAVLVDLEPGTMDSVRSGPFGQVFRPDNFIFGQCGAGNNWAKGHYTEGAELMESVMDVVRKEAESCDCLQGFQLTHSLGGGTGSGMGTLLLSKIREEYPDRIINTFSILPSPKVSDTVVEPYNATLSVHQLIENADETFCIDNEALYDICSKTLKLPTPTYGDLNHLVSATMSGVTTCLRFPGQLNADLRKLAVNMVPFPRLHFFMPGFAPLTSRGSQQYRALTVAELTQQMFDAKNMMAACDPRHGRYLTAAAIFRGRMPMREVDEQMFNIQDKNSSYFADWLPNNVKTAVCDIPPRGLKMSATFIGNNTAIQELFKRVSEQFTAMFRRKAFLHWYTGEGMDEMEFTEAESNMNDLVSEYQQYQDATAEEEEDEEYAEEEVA
UniProt P07437: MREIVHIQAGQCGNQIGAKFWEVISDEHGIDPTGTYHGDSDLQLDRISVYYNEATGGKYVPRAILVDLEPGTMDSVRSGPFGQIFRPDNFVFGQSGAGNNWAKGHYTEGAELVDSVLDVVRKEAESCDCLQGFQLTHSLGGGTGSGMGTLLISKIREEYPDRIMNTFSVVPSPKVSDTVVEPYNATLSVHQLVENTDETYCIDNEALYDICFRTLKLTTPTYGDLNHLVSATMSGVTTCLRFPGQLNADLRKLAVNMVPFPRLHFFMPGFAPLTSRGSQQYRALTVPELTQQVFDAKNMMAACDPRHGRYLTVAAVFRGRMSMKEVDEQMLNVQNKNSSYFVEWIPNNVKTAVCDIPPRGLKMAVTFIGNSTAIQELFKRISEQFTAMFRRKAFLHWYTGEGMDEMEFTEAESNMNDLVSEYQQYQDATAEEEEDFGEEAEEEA
UniProt P68363: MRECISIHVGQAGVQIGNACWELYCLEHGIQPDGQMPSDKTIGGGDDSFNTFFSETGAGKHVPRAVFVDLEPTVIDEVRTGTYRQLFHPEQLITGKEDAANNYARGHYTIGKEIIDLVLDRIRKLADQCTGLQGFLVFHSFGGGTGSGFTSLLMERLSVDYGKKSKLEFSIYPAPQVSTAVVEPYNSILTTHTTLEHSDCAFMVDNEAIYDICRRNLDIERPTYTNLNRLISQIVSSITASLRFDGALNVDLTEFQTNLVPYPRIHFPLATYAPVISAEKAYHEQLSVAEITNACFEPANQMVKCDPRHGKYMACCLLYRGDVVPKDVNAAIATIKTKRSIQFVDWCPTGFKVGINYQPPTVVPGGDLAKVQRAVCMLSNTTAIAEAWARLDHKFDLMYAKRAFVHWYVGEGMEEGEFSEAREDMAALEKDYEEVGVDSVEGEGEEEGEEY
UniProt Q9BQE3: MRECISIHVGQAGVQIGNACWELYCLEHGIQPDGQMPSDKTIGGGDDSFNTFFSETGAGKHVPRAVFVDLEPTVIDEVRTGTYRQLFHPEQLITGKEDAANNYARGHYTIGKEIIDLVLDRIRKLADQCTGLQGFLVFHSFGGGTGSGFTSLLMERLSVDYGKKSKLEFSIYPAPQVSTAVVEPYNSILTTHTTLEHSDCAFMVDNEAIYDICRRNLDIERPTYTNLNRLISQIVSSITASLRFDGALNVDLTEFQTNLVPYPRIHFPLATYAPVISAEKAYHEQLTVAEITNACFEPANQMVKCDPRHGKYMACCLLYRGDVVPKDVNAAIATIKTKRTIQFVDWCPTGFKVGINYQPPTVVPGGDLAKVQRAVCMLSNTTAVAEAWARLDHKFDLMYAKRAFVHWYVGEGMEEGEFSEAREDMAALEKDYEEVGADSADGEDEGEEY
UniProt Q6PEY2: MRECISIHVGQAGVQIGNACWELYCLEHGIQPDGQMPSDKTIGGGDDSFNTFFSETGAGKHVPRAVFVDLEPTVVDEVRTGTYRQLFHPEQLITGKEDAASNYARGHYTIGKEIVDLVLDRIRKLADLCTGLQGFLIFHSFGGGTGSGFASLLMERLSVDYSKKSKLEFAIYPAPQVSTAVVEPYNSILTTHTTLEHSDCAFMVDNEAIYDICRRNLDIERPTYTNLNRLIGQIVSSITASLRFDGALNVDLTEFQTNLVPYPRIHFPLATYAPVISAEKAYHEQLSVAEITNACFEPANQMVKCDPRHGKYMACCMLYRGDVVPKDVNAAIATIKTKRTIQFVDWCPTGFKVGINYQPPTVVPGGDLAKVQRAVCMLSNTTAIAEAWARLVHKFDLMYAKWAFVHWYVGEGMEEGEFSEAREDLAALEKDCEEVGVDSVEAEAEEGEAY
UniProt Q13885: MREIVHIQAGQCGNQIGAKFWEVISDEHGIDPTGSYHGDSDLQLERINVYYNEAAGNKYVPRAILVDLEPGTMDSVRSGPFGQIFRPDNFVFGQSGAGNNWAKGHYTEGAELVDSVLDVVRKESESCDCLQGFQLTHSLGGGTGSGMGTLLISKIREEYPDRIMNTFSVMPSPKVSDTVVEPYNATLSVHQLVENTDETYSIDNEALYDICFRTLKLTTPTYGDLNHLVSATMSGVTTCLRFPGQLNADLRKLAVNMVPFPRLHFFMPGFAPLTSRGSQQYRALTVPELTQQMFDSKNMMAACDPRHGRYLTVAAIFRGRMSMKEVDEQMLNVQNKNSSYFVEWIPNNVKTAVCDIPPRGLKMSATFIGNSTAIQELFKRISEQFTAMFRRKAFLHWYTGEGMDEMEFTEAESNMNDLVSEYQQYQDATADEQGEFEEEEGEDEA
UniProt Q9BVA1: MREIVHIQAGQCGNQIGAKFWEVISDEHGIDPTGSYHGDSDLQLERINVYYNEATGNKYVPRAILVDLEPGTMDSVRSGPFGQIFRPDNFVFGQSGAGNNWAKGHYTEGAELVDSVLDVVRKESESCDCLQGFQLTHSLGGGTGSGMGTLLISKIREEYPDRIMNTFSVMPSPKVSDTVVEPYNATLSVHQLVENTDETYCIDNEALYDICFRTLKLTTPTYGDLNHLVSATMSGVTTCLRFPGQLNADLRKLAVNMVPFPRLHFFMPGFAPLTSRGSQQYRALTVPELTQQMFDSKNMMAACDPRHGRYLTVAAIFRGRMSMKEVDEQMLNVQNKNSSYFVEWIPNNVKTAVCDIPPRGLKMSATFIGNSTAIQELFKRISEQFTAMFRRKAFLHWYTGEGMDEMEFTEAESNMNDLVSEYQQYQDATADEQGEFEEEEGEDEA

What was measured:
U2OS [1] = assay: Induction of cell cycle arrest in human U2OS cells assessed as accumulation of 4N-DNA content at 30 uM incubated for 22 hrs followed by EdU plus addition for 2 hrs; assay type: functional, cell-based; conditions: time 24.0 hrs
Sus scrofa = organism: Sus scrofa; assay: Inhibition of porcine alpha/beta tubulin polymerization at 20 uM preincubated for 20 mins at room temperature prior to incubation in ice for 20 mins followed by GTP addition and measured after 60 mins; conditions: time 100.0 min
[2] = target: Protein smoothened (Mus musculus) (UniProt P56726); assay: Antagonist activity at mouse SMO expressed in HEK293T cells assessed as inhibition of BODIPY-cyclopamine binding incubated for 4 hrs by fluorescence microscopy method; assay type: functional, cell-based
U2OS [3] = assay: Induction of mitotic cell numbers in human U2OS cells at 10 uM incubated for 24 hrs by immunocytochemistry analysis; assay type: functional, cell-based
Tubulin (Homo sapiens) = Tubulin (Homo sapiens) (UniProt P68371+Q9H4B7+P0DPH7+P68366+Q13509+Q71U36+P04350+Q3ZCM7+P07437+P68363+Q9BQE3+Q6PEY2+Q13885+Q9BVA1+Q9BUF5); assay: Induction of microtubule depolymerization in human U2OS cells at 10 to 30 uM incubated for 24 hrs; assay type: cell-based; conditions: dose 10-30 µM
Shh Light II = assay: Inhibition of purmorphamine-induced osteoblast differentiation in mouse Shh Light II cells assessed as reduction in GLI-mediated gene expression preincubated for 1 hr followed by purmorphamine addition for 48 hrs by luminescence based reporter gene assay; assay type: functional, cell-based; conditions: time 49.0 hrs
U2OS [4] = assay: Induction of cell cycle arrest in human U2OS cells assessed as S-phase arrest by measuring 2N-4N DNA content at 30 uM incubated for 22 hrs followed by EdU plus addition for 2 hrs; assay type: functional, cell-based; conditions: time 24.0 hrs

Nc1ncnc2c1ncn2[C@@H]1O[C@H](CO)[C@@H](O)[C@@H]1O
Activity (U2OS [1]): Active

COc1ccc(CNC(=O)c2cc3cc(OC)ccc3oc2=O)cc1
inhibition (Sus scrofa): Active

CCOc1ccc(Oc2nc(Nc3ccc(C)cc3)nc(N(C)C)n2)nn1
Activity [2]: inactive

COc1cc(/C=C2/SC(=S)N(Cc3ccccc3)C2=O)ccc1OS(C)(=O)=O
inhibition (Sus scrofa): inactive
Activity (U2OS [3]): Active
Activity (Tubulin (Homo sapiens)): 100%

COc1cc(Nc2nc3ccc(Cl)cc3n3cnnc23)cc(OC)c1OC
inhibition (Shh Light II): Dose-Dependent Effect

COc1ccccc1CCNC(=O)CCCn1nc(C)c2c(C)n(-c3ccc(C)cc3)nc2c1=O
inhibition (Shh Light II): Dose-Dependent Effect
Activity ([2]; filed as antagonist): Active

COCCNC(=O)C1CCN(C(=O)c2cc3sccc3n2Cc2ccc(F)cc2)CC1
inhibition (Shh Light II): Dose-Dependent Effect
Activity ([2]; filed as antagonist): Active

COc1ccc(O)c(/C=N/NC(=O)CCC(=O)Nc2cccc(C)c2)c1
Activity (U2OS [4]): Active

COc1ccccc1NC(=O)CCc1c(C)nc2c(-c3ccc(F)cc3)c(C)nn2c1C
inhibition (Shh Light II): Dose-Dependent Effect

Cc1ccc(N2CC(C(=O)N3CCC(C(=O)Nc4cccc(Br)c4)CC3)CC2=O)cc1 (centres undefined)
inhibition (Shh Light II): Dose-Dependent Effect

COc1ccc(C)cc1S(=O)(=O)n1cnc2ccccc21
inhibition (Sus scrofa): Active

CN(CCCNC(=O)c1nn(C)c2c1CS(=O)(=O)c1ccccc1-2)Cc1ccccc1
inhibition (Shh Light II): Dose-Dependent Effect
Activity ([2]; filed as antagonist): Active

CCc1cc(C(=O)N/N=C/c2ccc(OC)cc2)c2ccccc2n1
inhibition (Sus scrofa): Active

COc1ccc(-c2cc(C(F)F)n3ncc(C(=O)N4CCN(c5cccc(Cl)c5)CC4)c3n2)cc1
inhibition (Shh Light II): Dose-Dependent Effect
